{"source": "patent US20040235801A1", "about": "“Therapy for stroke” (priority 2001, published 2004)", "origin": "cited, not measured here", "key": {"ALS patients": {"tested_on": "ALS patients", "conditions": "two controlled clinical trials; cited from earlier work"}, "SOD1 mutant mice": {"tested_on": "SOD1 mutant mice", "conditions": "single therapy, without affecting the onset of disease; cited from earlier work"}}, "data": [{"compound": "Nc1nc2ccc(OC(F)(F)F)cc2s1", "note": "[Riluzole]", "values": [{"measurement": "increase of survival of ALS patients", "setting": "ALS patients", "value": "3-6 months"}, {"measurement": "increase of survival", "setting": "SOD1 mutant mice", "value": "13 to 15", "unit": "days"}]}]}
